Residue numbers refer to the chain shown, from its start. “Also recorded” adds a separate entry of the source.
Assays:
Format in all cases: cell-based
hASIC1a = biological target: T1, hASIC1a (Homo sapiens, UniProt P78348); experiment: TEVC on Xenopus laevis oocytes expressing homomeric hASIC1a
T1 construct: expressed in transfected cells; host or cells: Xenopus laevis oocytes injected with cRNA
T1 sequence (P78348 1-528): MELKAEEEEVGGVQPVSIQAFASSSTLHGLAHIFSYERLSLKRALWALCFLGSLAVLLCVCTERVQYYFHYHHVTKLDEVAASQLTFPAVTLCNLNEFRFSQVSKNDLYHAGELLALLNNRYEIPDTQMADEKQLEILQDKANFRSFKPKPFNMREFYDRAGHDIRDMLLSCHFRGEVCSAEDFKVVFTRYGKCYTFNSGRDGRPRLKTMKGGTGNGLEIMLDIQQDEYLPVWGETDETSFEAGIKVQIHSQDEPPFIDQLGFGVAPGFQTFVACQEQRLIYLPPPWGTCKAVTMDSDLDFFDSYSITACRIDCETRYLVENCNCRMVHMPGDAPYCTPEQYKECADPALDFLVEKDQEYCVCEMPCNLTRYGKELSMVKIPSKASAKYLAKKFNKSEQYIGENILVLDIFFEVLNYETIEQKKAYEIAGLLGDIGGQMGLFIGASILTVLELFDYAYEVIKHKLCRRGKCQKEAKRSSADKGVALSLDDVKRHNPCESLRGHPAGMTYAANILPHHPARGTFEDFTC
Procedure: (§1) The ability of the peptides of the invention to modulate ASIC currents was assessed using two-electrode voltage clamp (TEVC) electrophysiology experiments performed on Xenopus laevis oocytes expressing homomeric ASIC channels. Xenopus oocytes are widely used as an expression system for functional characterisation of ion channel modulators. TEVC allows measurement of whole-cell ion channel currents while controlling the membrane potential.
(§2) Oocytes were harvested from anaesthetised female X. laevis then defolliculated by treatment with collagenase (Sigma, type I). Oocytes were injected with in vitro transcribed ASIC cRNA (capped RNA). Oocytes were kept at 17-18° C. in ND96 solution containing 96 mM NaCl, 2 mM KCl, 1.8 mM CaCl2, 2 mM MgCl2, 5 mM HEPES, 5 mM pyruvic acid, 50 μg/ml gentamicin (pH 7.4), and fetal horse serum (2.5%), and experiments were performed at room temperature (21-22° C.) 1-3 days after cRNA injection. Oocytes were clamped at −60 mV (Warner OC-725C oocyte clamp; Warner Instruments, CT, USA) using two standard glass microelectrodes of 0.5-2 MΩ resistance when filled with 3 M KCl. Data acquisition and analysis were performed using pCLAMP software, Version 10 (Axon Instruments, CA, USA). Currents were elicited by a drop in pH from 7.45 to 6.0 using a microperfusion system to allow rapid solution exchange. All experiments were performed using ND96 solution spiked with 0.1% BSA in order to minimise adsorption of peptides to plastic tubing.

F350A mutant rASIC1a = biological target: T2, F350A mutant rASIC1a (Rattus norvegicus, UniProt P55926, F350A); experiment: TEVC on Xenopus oocytes expressing F350A mutant rASIC1a; details: concentration dependent effects, FIG. 3D
T2 construct: expressed in transfected cells; host or cells: Xenopus oocytes
T2 sequence (P55926 1-526 F350A): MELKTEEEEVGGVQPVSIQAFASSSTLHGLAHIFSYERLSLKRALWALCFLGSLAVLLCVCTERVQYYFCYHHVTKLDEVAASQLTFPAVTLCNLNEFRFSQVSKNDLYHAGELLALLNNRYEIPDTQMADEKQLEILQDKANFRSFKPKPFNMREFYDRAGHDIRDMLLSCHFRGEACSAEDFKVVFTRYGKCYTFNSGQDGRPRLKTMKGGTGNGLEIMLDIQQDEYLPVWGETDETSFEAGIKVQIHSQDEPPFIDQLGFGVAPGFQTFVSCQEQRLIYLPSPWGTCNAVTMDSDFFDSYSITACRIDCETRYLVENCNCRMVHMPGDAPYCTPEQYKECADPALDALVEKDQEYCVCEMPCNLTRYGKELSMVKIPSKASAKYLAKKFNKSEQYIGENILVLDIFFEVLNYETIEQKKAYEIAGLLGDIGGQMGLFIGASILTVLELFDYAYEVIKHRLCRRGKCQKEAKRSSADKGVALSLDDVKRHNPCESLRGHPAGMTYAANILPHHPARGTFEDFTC
Procedure: as §1
as §2, with “All experiments were performed using ND96 solution spiked with 0.1% BSA in order to minimise adsorption of peptides to plastic tubing.” left out

rASIC2a = biological target: T3, rASIC2a (Rattus norvegicus, UniProt Q62962); experiment: TEVC on Xenopus oocytes expressing rASIC2a
T3 construct: expressed in transfected cells; host or cells: Xenopus laevis oocytes injected with cRNA
T3 sequence (Q62962 1-512): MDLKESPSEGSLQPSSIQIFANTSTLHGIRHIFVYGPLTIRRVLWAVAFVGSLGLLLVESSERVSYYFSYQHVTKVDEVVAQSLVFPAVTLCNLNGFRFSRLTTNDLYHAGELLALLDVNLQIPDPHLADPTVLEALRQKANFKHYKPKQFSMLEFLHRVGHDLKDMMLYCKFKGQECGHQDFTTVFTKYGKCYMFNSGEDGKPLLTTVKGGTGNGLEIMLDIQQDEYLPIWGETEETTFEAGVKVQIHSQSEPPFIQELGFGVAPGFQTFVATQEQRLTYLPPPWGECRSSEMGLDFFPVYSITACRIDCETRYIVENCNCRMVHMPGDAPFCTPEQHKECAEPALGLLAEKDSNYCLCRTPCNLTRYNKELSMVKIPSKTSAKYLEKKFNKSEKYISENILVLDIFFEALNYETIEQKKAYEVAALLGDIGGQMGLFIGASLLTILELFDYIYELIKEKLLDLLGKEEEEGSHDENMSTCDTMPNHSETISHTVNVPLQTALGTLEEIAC
Procedure: as §1
as §2, with “All experiments were performed using ND96 solution spiked with 0.1% BSA in order to minimise adsorption of peptides to plastic tubing.” left out

rASIC1a = biological target: T4, rASIC1a (Rattus norvegicus, UniProt P55926); experiment: Two-electrode voltage clamp (TEVC) on Xenopus laevis oocytes expressing homomeric rASIC1a
T4 construct: expressed in transfected cells; host or cells: Xenopus laevis oocytes injected with cRNA
T4 sequence (P55926 1-526): T2 sequence (P55926 1-526 F350A) with A350F
Procedure: as §1, §2

[1] = peptide applied at pH 7.45, concentration-dependent

In the case of `CC[C@H](C)[C@@H]1NC(=O)[C@@H](NC(=O)[C@H](CCC(=O)O)NC(=O)[C@H](CC(N)=O)NC(=O)[C@@H](N)CO)CSSC[C@@H]2NC(=O)[C@@H]3CSSC[C@@H](C(=O)N[C@H](C(=O)N4CCC[C@H]4C(=O)N[C@H](C(=O)N4CCC[C@H]4C(=O)NCC(=O)N[C@@H](Cc4ccccc4)C(=O)N[C@H]4CSSC[C@@H]5NC(=O)[C@@H]6CSSC[C@@H](C(=O)N[C@@H](C)C(=O)N7CCC[C@H]7C(=O)N[C@H](C(=O)N[C@H](C(=O)O)[C@@H](C)O)[C@@H](C)CC)NC(=O)[C@H](C(C)C)NC(=O)[C@H](CO)NC(=O)[C@H](CO)NC(=O)[C@H](CCCCN)NC(=O)[C@H](CC(N)=O)NC(=O)CNC(=O)[C@H](CO)NC(=O)[C@H](CCCNC(=N)N)NC(=O)[C@H](CCCCN)NC(=O)[C@H](Cc7c[nH]c8ccccc78)NC(=O)[C@H](CSSC[C@H](NC(=O)[C@H](CCC(N)=O)NC(=O)[C@H](CCCCN)NC(=O)[C@H](Cc7c[nH]c8ccccc78)NC(=O)[C@H](CCCCN)NC(=O)[C@H](C(C)C)NC(=O)[C@H](CC(C)C)NC4=O)C(=O)N[C@@H](CC(=O)O)C(=O)NCC(=O)N[C@@H](CCCNC(=N)N)C(=O)N[C@@H](CCC(=O)O)C(=O)N[C@@H](CCCNC(=N)N)C(=O)N[C@@H](CC(=O)O)C(=O)N6)NC(=O)[C@H](CCC(=O)O)NC(=O)[C@H](CC(C)C)NC(=O)CNC(=O)[C@H](C)NC5=O)[C@@H](C)CC)C(C)C)NC(=O)[C@H](C(C)C)NC(=O)[C@H](CCC(=O)O)NC(=O)[C@H](Cc4ccccc4)NC(=O)[C@H](CO)NC(=O)[C@H](Cc4c[nH]cn4)NC(=O)[C@H](CCCNC(=N)N)NC(=O)[C@H](CCCNC(=N)N)NC(=O)[C@H](CCCCN)NC(=O)[C@H](Cc4ccc(O)cc4)NC(=O)[C@H](CSSC[C@H](NC(=O)[C@H](CO)NC(=O)[C@H](CC(C)C)NC(=O)[C@H](Cc4c[nH]c5ccccc45)NC(=O)[C@H](CCCCN)NC(=O)[C@H](CCCNC(=N)N)NC1=O)C(=O)N[C@@H](C(C)C)C(=O)N[C@@H](CC(=O)O)C(=O)N[C@@H](CCCNC(=N)N)C(=O)N[C@@H](CCCCN)C(=O)N[C@@H](CC(N)=O)C(=O)N[C@@H](CC(=O)O)C(=O)N3)NC(=O)[C@H](CCC(=O)O)NC(=O)[C@H](CC(C)C)NC(=O)CNC(=O)[C@H](CCC(=O)O)NC2=O` [Hi1a], the IC50 (hASIC1a) is reported as 0.59 ± 0.14 nM, the Rapidly reversible inhibition (hASIC1a; Table 1, upon washout) is reported as “No” and the “Effect on pH50 of activation” value (hASIC1a; [1]) is reported as “shifted to slightly lower values”. The “Effect on steady-state desensitisation (SSD) curve” value (hASIC1a; two concentrations of peptide) was “pH-independent decrease in the maximum current”, the “Activity on F350A mutant of rASIC1a” value (F350A mutant rASIC1a) was “no activity” and the “Effect on rASIC2a current” value (rASIC2a; 30 nM at pH 7.45) was “minimal effect”. The “Effect on rASIC2a current” value (rASIC2a; 1 μM at pH 7.45) was “no effect”, the IC50 (rASIC1a) was 0.46 ± 0.16 nM and the Rapidly reversible inhibition (rASIC1a; Table 1, upon washout) was “No”. For the same compound, the “Extent of inhibition of ASIC1a currents (full or incomplete)” value (rASIC1a; at saturating concentrations) was “incomplete current inhibition”, the “Selectivity for ASIC1a over other subtypes” value (rASIC1a; over rASIC1b, rASIC2a and rASIC3, from 30 nM data) was “at least 50 fold” and the “Higher potency at ASIC1a over other subtypes” value (rASIC1a; over rASIC2a, rASIC3 and rASIC1b, from 1 μM data) was > 2000 fold. The “Effect on pH50 of activation” value (rASIC1a; [1]) was “shifted to slightly lower values”, the “Effect on steady-state desensitisation (SSD) curve” value (rASIC1a; two concentrations of peptide) was “pH-independent decrease in the maximum current” and the “Reversibility of inhibition (in words)” value (rASIC1a; upon washout) was “very slowly reversible; also recorded: very slow reversibility”.
